Measured values published in patent US9518052B2, “Pyrazolopyridines and pyrazolopyrimidines” (Pfizer Inc., priority 2014, dated 2016).
Structures can show the parent of a compound that is named as a salt.

Protein sequences, listed by entry. Tags and fused reporters are not part of them.
UniProt P29597, whole entry, species assumed: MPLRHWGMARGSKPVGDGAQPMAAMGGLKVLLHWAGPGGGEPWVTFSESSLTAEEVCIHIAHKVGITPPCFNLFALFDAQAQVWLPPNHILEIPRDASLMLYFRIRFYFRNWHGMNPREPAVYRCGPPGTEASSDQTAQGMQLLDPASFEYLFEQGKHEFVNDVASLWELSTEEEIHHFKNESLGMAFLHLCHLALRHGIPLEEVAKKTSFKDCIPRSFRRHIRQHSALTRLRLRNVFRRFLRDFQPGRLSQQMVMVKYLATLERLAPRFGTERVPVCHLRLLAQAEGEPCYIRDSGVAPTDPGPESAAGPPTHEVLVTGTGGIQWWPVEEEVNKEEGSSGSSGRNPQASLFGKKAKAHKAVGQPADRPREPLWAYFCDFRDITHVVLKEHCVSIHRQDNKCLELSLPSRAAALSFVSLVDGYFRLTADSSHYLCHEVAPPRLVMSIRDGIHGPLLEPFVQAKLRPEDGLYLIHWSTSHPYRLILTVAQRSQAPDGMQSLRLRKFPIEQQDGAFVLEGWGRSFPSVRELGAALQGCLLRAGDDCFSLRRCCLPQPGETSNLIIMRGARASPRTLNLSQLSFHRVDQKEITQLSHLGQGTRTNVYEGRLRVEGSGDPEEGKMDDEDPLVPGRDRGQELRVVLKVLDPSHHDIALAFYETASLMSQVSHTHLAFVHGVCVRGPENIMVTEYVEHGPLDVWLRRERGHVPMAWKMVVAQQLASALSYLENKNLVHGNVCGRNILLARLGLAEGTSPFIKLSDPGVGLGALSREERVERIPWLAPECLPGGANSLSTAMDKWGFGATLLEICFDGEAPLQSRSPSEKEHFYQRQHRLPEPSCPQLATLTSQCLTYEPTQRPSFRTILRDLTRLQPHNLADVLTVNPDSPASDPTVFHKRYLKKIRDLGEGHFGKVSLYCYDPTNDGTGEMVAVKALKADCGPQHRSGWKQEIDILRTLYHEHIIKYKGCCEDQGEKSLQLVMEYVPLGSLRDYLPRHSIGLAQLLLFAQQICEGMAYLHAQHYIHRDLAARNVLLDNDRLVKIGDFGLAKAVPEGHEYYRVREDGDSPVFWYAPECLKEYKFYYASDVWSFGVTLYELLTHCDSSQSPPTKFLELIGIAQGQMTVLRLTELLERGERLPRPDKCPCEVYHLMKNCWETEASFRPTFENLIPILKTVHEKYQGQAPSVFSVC

Molecular target: TYK2 (Homo sapiens (Human), UniProt P29597)
Assay: JAK Caliper Enzyme Assay at 1 mM ATP (TYK2)
Format: biochemical
Conditions: Caliper assay at 1 mM ATP
Procedure: JAK Caliper Enzyme Assay at 1 mM ATP
Test article was solubilized in dimethyl sulfoxide (DMSO) to a stock concentration of 30 mM. An 11-point half log dilution series was created in DMSO with a top concentration of 600 μM. […] The compound plates were diluted 1 to 60 resulting in a top final assay compound concentration of 10 μM and a 2% DMSO concentration.
Test article and assay controls were added to a 384-well plate. Reaction mixtures contained 20 mM HEPES, pH 7.4, 10 mM magnesium chloride, 0.01% bovine serum albumin (BSA), 0.0005% Tween 20, 1 mM ATP and 1 μM peptide substrate. […] Enzyme concentrations and incubation times were optimized for each new enzyme preps and were modified slightly over time to ensure 20%-30% phosphorylation. The assays were stopped with a final concentration of 10 mM EDTA, 0.1% Coating Reagent and 100 mM HEPES, pH=7.4. The assay plates were placed on a Caliper Life Science Lab Chip 3000 (LC3000) instrument, and each well was sampled using appropriate separation conditions to measure the unphosphorylated and phosphorylated peptide.

CCc1cc(O)c(F)cc1-c1cc2[nH]ncc2c(N(CCN2CCOCC2)Cc2ccccc2N(C)S(C)(=O)=O)n1 [Example 140, N-[2-({[6-(2-ethyl-5-fluoro-4-hydroxyphenyl)-1H-pyrazolo[4,3-c]pyridin-4-yl][2-(morpholin-4-yl)ethyl]amino}methyl)phenyl]-N-methylmethanesulfonamide]
IC50: 1.41 µM

CCc1cc(O)ccc1-c1cc2[nH]ncc2c(N2CC(Oc3cc(C#N)ccc3Cl)C2)n1 [Example 120, 4-chloro-3-({1-[6-(2-ethyl-4-hydroxyphenyl)-1H-pyrazolo[4,3-c]pyridin-4-yl]azetidin-3-yl}oxy)benzonitrile formate]
IC50: 3.32 µM

Oc1cc(CC(F)(F)F)c(-c2nc(NCCC3CC3)c3cn[nH]c3n2)cc1F [Example 152, 4-{4-[(2-cyclopropylethyl)amino]-1H-pyrazolo[3,4-d]pyrimidin-6-yl}-2-fluoro-5-(2,2,2-trifluoroethyl)phenol]
IC50: 3.67 µM

CNC(=O)c1n[nH]c2cc(-c3cc(F)c(O)cc3CC(F)(F)F)nc(NCc3cnccc3N(C)S(C)(=O)=O)c12 [Example 48, 6-[5-fluoro-4-hydroxy-2-(2,2,2-trifluoroethyl)phenyl]-N-methyl-4-[({4-[methyl(methylsulfonyl)amino]pyridin-3-yl}methyl)amino]-1H-pyrazolo[4,3-c]pyridine-3-carboxamide]
IC50: 6.33 µM

CS(=O)(=O)N(CCO)c1ccccc1CNc1nc(-c2cc(F)c(O)cc2CC(F)(F)F)nc2[nH]nc(C(N)=O)c12 [Example 101, 6-(5-fluoro-4-hydroxy-2-(2,2,2-trifluoroethyl)phenyl)-4-((2-(N-(2-hydroxyethyl)methylsulfonamido)benzyl)amino)-1H-pyrazolo[3,4-d]pyrimidine-3-carboxamide]
IC50: 1.96 µM

CNC(=O)c1n[nH]c2cc(-c3cc(F)c(O)cc3C3CC3)nc(NCc3cccnc3N(C)S(C)(=O)=O)c12 [Example 49, 6-(2-cyclopropyl-5-fluoro-4-hydroxyphenyl)-N-methyl-4-[({2-[methyl(methylsulfonyl)amino]pyridin-3-yl}methyl)amino]-1H-pyrazolo[4,3-c]pyridine-3-carboxamide]
IC50: 3.6 µM
